By UniProt entry, the sequences of proteins in these tests, tags left out.
UniProt P08913, whole entry: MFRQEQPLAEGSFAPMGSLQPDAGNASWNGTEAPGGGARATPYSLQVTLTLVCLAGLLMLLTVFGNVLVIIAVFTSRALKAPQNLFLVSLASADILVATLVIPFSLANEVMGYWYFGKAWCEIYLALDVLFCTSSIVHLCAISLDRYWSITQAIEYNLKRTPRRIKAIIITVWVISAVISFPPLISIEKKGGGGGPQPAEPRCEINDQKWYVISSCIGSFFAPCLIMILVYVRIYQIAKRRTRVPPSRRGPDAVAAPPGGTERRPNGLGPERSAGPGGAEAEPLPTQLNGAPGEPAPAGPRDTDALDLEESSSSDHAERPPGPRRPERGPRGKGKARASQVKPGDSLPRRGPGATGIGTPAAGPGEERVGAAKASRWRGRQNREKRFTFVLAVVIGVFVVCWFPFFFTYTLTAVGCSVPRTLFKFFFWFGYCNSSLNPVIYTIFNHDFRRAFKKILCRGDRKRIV

In ChEMBL document CHEMBL5500395 (J Med Chem, 2024):

target: Alpha-2A adrenergic receptor (Homo sapiens, UniProt P08913); experiment: biochemical

| SMILES | EC50 |
| --- | --- |
| CCOC(=O)[C@@H]1[C@H]2C[C@H]3c4[nH]c5ccccc5c4CCN3C[C@@H]2CC[C@@H]1O | 11 nM |
| O=C(O[C@@H]1CCNC1)[C@@H]1[C@H]2C[C@H]3c4[nH]c5ccccc5c4CCN3C[C@@H]2CC[C@@H]1O | 26 nM |
| O=C(OC[C@H]1CCNC1)[C@@H]1[C@H]2C[C@H]3c4[nH]c5ccccc5c4CCN3C[C@@H]2CC[C@@H]1O | 15 nM |
| CNCCOC(=O)[C@@H]1[C@H]2C[C@H]3c4[nH]c5ccccc5c4CCN3C[C@@H]2CC[C@@H]1O | 48 nM |
| CC(C)(C)OC(=O)[C@@H]1[C@H]2C[C@H]3c4[nH]c5ccccc5c4CCN3C[C@@H]2CC[C@@H]1O | 83 nM |
| CC(C)OC(=O)[C@@H]1[C@H]2C[C@H]3c4[nH]c5ccccc5c4CCN3C[C@@H]2CC[C@@H]1O | 48 nM |
| O=C(O[C@H]1CCNC1)[C@@H]1[C@H]2C[C@H]3c4[nH]c5ccccc5c4CCN3C[C@@H]2CC[C@@H]1O | 20 nM |
| O=C(OC[C@@H]1CCNC1)[C@@H]1[C@H]2C[C@H]3c4[nH]c5ccccc5c4CCN3C[C@@H]2CC[C@@H]1O | 16 nM |
| O=C(OCC1CNC1)[C@@H]1[C@H]2C[C@H]3c4[nH]c5ccccc5c4CCN3C[C@@H]2CC[C@@H]1O | 10 nM |
| O=C(OC1CNC1)[C@@H]1[C@H]2C[C@H]3c4[nH]c5ccccc5c4CCN3C[C@@H]2CC[C@@H]1O | 17 nM |
| O=C(OC[C@@H]1CCN1)[C@@H]1[C@H]2C[C@H]3c4[nH]c5ccccc5c4CCN3C[C@@H]2CC[C@@H]1O | 55 nM |
| CC(C)CCOC(=O)[C@@H]1[C@H]2C[C@H]3c4[nH]c5ccccc5c4CCN3C[C@@H]2CC[C@@H]1O | 21 nM |
| O=C(OC[C@H]1CCN1)[C@@H]1[C@H]2C[C@H]3c4[nH]c5ccccc5c4CCN3C[C@@H]2CC[C@@H]1O | 13 nM |
| O=C(OC1CCCNC1)[C@@H]1[C@H]2C[C@H]3c4[nH]c5ccccc5c4CCN3C[C@@H]2CC[C@@H]1O (some centres undefined) | 73 nM |
